Experimental data published in patent publication US20230081426A1, “COMPOUNDS AND METHODS FOR KRAS MODULATION AND INDICATIONS THEREFOR” (Plexxikon Inc., priority 2020, published 2023).

Protein sequences, listed by entry. Tags and fused reporters are not part of them. Residues count along the entry.
UniProt P01116, 1-188 isoform 2 G12C: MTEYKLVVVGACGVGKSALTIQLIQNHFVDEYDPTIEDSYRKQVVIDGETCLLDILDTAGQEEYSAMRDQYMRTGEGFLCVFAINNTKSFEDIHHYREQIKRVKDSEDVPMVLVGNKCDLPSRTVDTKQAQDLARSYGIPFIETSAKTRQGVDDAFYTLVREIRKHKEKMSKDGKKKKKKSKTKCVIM
UniProt P01116, 1-188 isoform 2 G12D: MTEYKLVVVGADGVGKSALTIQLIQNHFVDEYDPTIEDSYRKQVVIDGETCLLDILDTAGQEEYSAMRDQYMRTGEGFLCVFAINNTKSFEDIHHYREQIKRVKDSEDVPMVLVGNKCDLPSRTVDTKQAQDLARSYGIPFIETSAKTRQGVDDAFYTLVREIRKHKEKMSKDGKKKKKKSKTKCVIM

How the values were obtained:
[1] = target: G12C-mutant human KRAS (amino acid residues 1-188) (Homo sapiens, UniProt P01116, G12C); assay: KRAS Binding Disruption Assay (AlphaScreen; biotinylated KRpep-2d analogue or RAF1-RBD), G12C; details: read-out: KRAS GMean IC50 (uM) MUTATION: G12C, geometric mean
[2] = target: G12D-mutant human KRAS (amino acid residues 1-188) (Homo sapiens, UniProt P01116, G12D); assay: KRAS Binding Disruption Assay (AlphaScreen; biotinylated KRpep-2d analogue or RAF1-RBD), G12D; details: read-out: KRAS GMean IC50 (uM) MUTATION: G12D, geometric mean

Fc1cc2c(N3CC4CCC(C3)N4)nc(OCC34CCCN3CCC4)nc2c(F)c1-c1c[nH]c2cccc(Cl)c12
IC50 [1]: 0.0001 to 10 µM
IC50 [2]: 0.0001 to 10 µM

Fc1c(-c2c[nH]c3cccc(Cl)c23)ccc2c(N3CC4CCC(C3)N4)nc(OCC34CCCN3CCC4)nc12
IC50 [1]: 0.0001 to 10 µM
IC50 [2]: 0.0001 to 10 µM
